Calls of active or inactive are those of the source. The rule behind the calls is not given here.
Legend:
[1] = molecular target: G-protein coupled receptor 84 (Mus musculus) (UniProt Q8CIM5); assay: Antagonist activity at mouse GPR84 expressed in HEK293 cells co-expressing Galpha16 assessed as inhibition of 6-OAU induced calcium response incubated for 10 mins by calcium mobilization assay; type: functional, cell-based; conditions: filed as antagonist
[2] = molecular target: Free fatty acid receptor 1 (Homo sapiens) (UniProt O14842); assay: Antagonist activity at GPR40 (unknown origin) expressed in HEK293 cells co-expressing Galpha16 assessed as inhibition of TAK-875 induced calcium response upto 100 uM incubated for 10 mins by calcium mobilization assay; type: functional, cell-based
[3] = molecular target: T1, Free fatty acid receptor 3 (Homo sapiens) (UniProt O14843); assay: Antagonist activity at GPR41 (unknown origin) expressed in HEK293 cells co-expressing Galpha16 assessed as inhibition of sodium butyrate induced calcium response upto 100 uM incubated for 10 mins by calcium mobilization assay; type: functional, cell-based
T1 sequence (whole entry): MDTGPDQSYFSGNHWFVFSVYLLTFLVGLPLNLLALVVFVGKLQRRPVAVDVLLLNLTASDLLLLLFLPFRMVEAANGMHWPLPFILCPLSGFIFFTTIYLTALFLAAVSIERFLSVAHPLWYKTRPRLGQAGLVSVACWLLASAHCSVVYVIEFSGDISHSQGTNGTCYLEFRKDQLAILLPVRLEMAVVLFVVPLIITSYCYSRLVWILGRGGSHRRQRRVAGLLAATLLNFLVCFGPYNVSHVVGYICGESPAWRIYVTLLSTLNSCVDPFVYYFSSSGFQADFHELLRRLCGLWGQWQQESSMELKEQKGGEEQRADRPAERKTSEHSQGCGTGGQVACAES

Sequences of proteins named here, by UniProt entry; tags and fusion partners are left off. A change or cut given only in a name is not applied to a line headed by its entry.
UniProt Q8CIM5: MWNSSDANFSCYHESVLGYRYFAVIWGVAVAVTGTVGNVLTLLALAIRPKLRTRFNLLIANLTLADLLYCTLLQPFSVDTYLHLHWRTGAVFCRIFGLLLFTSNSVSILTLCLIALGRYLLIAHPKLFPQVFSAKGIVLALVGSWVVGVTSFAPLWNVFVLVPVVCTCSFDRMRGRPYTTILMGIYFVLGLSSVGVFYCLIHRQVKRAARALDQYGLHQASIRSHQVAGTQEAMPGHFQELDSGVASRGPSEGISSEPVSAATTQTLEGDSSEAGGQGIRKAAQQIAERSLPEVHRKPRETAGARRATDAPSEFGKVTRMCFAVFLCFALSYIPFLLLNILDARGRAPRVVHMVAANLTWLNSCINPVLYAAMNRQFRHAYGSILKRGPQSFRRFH
UniProt O14842, whole entry: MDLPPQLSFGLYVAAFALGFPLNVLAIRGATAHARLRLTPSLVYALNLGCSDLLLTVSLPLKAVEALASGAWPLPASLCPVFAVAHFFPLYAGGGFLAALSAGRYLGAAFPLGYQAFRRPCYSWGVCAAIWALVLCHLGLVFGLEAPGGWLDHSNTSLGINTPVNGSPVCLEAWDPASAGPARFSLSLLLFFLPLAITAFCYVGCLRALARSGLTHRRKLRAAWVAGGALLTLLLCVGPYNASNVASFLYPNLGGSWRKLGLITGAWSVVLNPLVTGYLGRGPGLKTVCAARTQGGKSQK
UniProt P41145: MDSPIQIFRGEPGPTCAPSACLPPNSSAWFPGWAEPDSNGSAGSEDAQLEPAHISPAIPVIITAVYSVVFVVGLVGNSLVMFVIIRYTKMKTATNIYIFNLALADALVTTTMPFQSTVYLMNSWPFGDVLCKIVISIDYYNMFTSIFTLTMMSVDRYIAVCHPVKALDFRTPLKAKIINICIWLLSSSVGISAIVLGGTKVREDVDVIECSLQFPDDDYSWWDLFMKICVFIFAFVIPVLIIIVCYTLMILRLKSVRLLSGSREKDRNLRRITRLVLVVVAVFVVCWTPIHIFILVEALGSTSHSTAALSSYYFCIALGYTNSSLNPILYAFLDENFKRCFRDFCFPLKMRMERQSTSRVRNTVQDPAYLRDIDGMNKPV
UniProt P41143, whole entry: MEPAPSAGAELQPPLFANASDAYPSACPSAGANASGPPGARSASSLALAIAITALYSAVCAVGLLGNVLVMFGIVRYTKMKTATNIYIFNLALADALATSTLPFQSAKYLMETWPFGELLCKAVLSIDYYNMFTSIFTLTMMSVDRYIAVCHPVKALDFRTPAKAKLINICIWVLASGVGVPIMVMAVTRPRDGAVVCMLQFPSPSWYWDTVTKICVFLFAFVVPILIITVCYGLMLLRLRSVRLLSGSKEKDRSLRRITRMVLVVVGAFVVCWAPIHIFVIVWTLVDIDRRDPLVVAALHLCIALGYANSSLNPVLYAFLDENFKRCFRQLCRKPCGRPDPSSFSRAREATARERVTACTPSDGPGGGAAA
UniProt P08588, whole entry, looked up: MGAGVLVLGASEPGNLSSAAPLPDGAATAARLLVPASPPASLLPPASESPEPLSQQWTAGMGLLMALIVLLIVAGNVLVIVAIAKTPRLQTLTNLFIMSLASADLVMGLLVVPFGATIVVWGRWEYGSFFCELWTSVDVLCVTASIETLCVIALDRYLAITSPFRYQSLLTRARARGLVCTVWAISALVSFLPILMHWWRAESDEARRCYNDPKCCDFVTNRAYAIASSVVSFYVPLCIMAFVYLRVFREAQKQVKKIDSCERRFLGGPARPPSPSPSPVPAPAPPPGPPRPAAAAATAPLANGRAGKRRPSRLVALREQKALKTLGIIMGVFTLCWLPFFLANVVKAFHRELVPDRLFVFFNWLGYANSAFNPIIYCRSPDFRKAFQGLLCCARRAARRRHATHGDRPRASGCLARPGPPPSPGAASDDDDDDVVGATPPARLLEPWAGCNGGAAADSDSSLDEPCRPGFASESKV
UniProt P13945: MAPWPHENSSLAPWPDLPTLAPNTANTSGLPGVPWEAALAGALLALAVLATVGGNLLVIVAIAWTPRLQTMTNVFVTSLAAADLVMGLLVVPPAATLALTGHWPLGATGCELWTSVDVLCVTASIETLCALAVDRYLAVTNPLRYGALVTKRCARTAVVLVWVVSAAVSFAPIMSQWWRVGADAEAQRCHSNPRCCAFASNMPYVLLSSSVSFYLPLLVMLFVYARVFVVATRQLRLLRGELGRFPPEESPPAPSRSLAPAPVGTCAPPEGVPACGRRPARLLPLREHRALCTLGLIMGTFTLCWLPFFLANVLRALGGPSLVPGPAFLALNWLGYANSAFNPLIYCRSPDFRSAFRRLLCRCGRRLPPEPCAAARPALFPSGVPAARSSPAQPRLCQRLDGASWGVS
UniProt P21728, whole entry: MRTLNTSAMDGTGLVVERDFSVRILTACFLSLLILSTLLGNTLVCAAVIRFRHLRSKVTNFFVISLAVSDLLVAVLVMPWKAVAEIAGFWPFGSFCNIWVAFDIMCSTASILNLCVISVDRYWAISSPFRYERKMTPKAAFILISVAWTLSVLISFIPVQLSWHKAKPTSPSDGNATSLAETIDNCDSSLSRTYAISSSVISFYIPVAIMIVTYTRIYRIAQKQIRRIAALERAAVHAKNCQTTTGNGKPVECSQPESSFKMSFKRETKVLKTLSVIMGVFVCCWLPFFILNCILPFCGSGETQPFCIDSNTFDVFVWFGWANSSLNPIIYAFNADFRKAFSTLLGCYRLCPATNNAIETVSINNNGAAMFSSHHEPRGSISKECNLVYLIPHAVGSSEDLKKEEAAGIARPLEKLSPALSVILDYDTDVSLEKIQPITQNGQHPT

[4] = molecular target: T2, Glucose-dependent insulinotropic receptor (Homo sapiens) (UniProt Q8TDV5); assay: Antagonist activity at GPR119 (unknown origin) expressed in HEK293 cells assessed as inhibition of AR231453 induced […] upto 100 uM pre-incubated for 10 mins followed by AR231453 addition and measured after 15 mins by cAMP detection assay; type: functional, cell-based; conditions: time 25.0 min
T2 sequence (whole entry): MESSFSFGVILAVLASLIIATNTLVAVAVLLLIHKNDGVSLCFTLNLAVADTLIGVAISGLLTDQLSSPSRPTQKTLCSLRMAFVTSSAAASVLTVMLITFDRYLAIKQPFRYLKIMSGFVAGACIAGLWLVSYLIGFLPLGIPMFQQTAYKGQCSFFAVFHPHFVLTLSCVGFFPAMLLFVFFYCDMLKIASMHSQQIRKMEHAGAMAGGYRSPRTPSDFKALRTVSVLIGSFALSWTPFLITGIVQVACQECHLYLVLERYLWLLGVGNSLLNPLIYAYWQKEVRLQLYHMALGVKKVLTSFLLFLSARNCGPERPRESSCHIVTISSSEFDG

[5] = molecular target: T3, Free fatty acid receptor 4 (Homo sapiens) (UniProt Q5NUL3); assay: Antagonist activity at GPR120 (unknown origin) expressed in HEK293 cells co-expressing Galpha16 assessed as inhibition of TUG-981 induced calcium response upto 100 uM incubated for 10 mins by calcium mobilization assay; type: functional, cell-based
T3 sequence (whole entry): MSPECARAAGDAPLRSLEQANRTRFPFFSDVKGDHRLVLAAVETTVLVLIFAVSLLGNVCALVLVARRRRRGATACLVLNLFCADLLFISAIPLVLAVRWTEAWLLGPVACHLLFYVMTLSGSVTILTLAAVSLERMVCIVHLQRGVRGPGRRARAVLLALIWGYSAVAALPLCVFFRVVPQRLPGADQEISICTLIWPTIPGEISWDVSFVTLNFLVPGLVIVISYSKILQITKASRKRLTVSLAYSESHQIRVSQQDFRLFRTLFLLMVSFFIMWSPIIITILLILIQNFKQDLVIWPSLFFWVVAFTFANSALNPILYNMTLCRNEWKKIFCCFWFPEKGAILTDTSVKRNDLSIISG

[6] = molecular target: Kappa-type opioid receptor (Homo sapiens) (UniProt P41145); assay: Antagonist activity at KOR (unknown origin) expressed in HEK293 cells co-expressing Galpha16 assessed as inhibition of U50488 induced calcium response upto 100 uM incubated for 10 mins by calcium mobilization assay; type: functional, cell-based
[7] = molecular target: Delta-type opioid receptor (Homo sapiens) (UniProt P41143); assay: Antagonist activity at DOR (unknown origin) expressed in CHO-K1 cells co-expressing Galpha16 assessed as inhibition of DPDPE induced calcium response upto 100 uM incubated for 10 mins by calcium mobilization assay; type: functional, cell-based
[8] = molecular target: T4, Alpha-1A adrenergic receptor (Homo sapiens) (UniProt P35348); assay: Antagonist activity at ARalpha1A (unknown origin) expressed in HEK293 cells co-expressing Galpha16 assessed as inhibition of Phenylephrine induced calcium response upto 100 uM incubated for 10 mins by calcium mobilization assay; type: functional, cell-based
T4 sequence (whole entry): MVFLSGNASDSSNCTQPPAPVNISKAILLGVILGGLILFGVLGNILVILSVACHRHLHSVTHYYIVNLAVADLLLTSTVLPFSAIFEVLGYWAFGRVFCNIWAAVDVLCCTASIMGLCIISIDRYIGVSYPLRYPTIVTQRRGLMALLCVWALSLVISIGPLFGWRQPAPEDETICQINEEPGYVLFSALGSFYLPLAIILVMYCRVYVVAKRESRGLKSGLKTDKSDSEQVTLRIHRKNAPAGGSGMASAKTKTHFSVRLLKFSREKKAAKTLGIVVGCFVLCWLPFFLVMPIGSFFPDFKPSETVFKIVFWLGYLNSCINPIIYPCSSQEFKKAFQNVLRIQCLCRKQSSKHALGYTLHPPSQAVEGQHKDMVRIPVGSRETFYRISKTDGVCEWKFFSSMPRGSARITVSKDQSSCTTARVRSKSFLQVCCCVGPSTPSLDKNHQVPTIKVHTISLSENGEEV

[9] = molecular target: Beta-1 adrenergic receptor (Homo sapiens) (UniProt P08588); assay: Antagonist activity at ARbeta1 (unknown origin) expressed in HEK293 cells co-expressing Galpha16 assessed as inhibition of Isoproterenol induced calcium response upto 100 uM incubated for 10 mins by calcium mobilization assay; type: functional, cell-based
[10] = molecular target: Beta-2 adrenergic receptor (Homo sapiens) (UniProt P07550); assay: Antagonist activity at ARbeta2 (unknown origin) expressed in HEK293 cells co-expressing Galpha16 assessed as inhibition of Isoproterenol induced calcium response upto 100 uM incubated for 10 mins by calcium mobilization assay; type: functional, cell-based
[11] = molecular target: Beta-3 adrenergic receptor (Homo sapiens) (UniProt P13945); assay: Antagonist activity at ARbeta3 (unknown origin) expressed in HEK293 cells co-expressing Galpha16 assessed as inhibition of Isoproterenol induced calcium response upto 100 uM incubated for 10 mins by calcium mobilization assay; type: functional, cell-based
[12] = molecular target: D(1A) dopamine receptor (Homo sapiens) (UniProt P21728); assay: Antagonist activity at DRD1 (unknown origin) expressed in HEK293 cells co-expressing Galpha16 assessed as inhibition of dopamine induced calcium response upto 100 uM incubated for 10 mins by calcium mobilization assay; type: functional, cell-based
[13] = molecular target: G-protein coupled receptor 84 (Mus musculus) (UniProt Q8CIM5); conditions: HEK293, filed as antagonist, dose 30-300 nM, time 10.0 min
[14] = molecular target: G-protein coupled receptor 84 (Mus musculus) (UniProt Q8CIM5); conditions: HEK293, filed as antagonist, dose 30-300 nM, time 10.0 min; remark: listed apart in the source

**Q.** `COc1cccc2c1Sc1ccccc1C=C2OP(=O)(O)O[C@@H]1C(C)(C)[C@@H]2CC[C@@]1(C)C2` was tested. Which inhibition [1] did it give?
**A.** Active

**Q.** And the inhibition [2]?
**A.** inactive

**Q.** And the inhibition [3]?
**A.** inactive

**Q.** And the inhibition [4]?
**A.** inactive

**Q.** And the inhibition [5]?
**A.** inactive

**Q.** What about the inhibition [6] of the same compound?
**A.** inactive

**Q.** And the inhibition [7]?
**A.** inactive

**Q.** And the inhibition [8]?
**A.** inactive

**Q.** What about the inhibition [9] of the same compound?
**A.** inactive

**Q.** What about the inhibition [10] of the same compound?
**A.** inactive

**Q.** And the inhibition [11]?
**A.** inactive

**Q.** And the inhibition [12]?
**A.** inactive

**Q.** What about the inhibition [13] of the same compound?
**A.** Dose-Dependent Effect

**Q.** And the inhibition [14]?
**A.** Dose-Dependent Effect

**Q.** Which inhibition [1] does the source give for `O=c1nc(OC[C@@H]2COCCO2)cc2n1CCc1cc(C#CC3CC3)ccc1-2` here?
**A.** Active

Source: ChEMBL document CHEMBL5380862, “Unsymmetrical Phosphodiesters as GPR84 Antagonists with High Blood Exposure for the Treatment of Lung Inflammation” (J Med Chem, 2023)
